Measured values published in publication PMC4104156 (Chemistry & biology, 2014).

Target: BRD4-BrD1 (Homo sapiens, UniProt O60885)
Experiment: Isothermal titration calorimetry
Assay type: binding
Details: ITC

SMILES: CC(=O)NCCCCn1c2c(c3ccccc31)C(=O)NCC2 [Olinone]
- improvement in binding affinity compared to analogs 4a, 4c and 4d: greater than 15 fold
